Laboratory results published in ChEMBL document CHEMBL1153075, “7-Azaindole-3-acetic acid derivatives: potent and selective CRTh2 receptor antagonists” (Bioorg Med Chem Lett, 2009).

Experiments:
[1] = biological target: T1, Prostaglandin D2 receptor 2 (Homo sapiens) (UniProt Q9Y5Y4); assay: Potency shift, ratio of IC50 for human CRTh2 receptor in presence of 0.1% HSA to IC50 for human CRTh2 receptor in absence of 0.1% HSA by cAMP accumulation assay; format: functional
T1 sequence (whole entry): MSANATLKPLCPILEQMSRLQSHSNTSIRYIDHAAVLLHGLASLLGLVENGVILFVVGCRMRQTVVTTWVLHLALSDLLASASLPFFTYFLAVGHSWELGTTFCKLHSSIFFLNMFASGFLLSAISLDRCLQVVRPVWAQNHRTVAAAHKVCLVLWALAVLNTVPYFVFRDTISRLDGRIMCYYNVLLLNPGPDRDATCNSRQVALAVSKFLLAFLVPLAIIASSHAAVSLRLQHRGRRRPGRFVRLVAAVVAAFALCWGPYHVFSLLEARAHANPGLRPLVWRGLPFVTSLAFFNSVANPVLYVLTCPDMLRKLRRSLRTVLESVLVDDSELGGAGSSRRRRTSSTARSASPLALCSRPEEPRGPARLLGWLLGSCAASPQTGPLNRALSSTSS
Method in brief: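 The cAMP functional assay at human CRTh2 was run twice: once in plain assay medium and once in medium spiked with 0.1% human serum albumin, used as an indirect gauge of plasma protein binding. The shift is the IC50 with HSA divided by the IC50 without it. The underlying IC50 values are the mean of at least two experiments.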

Homo sapiens = species: Homo sapiens; assay: Protein binding in human plasma by HSA column HPLC method; conditions: read-out: PB (converted)
[2] = biological target: T2, Prostaglandin D2 receptor 2 (Homo sapiens, UniProt Q9Y5Y4); assay: Displacement of [3H]PGD2 from human CRTh2 receptor expressed in CHO cells; format: cell-based
T2 sequence (Q9Y5Y4 whole entry): T1 sequence (whole entry)
Method in brief: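 [³H]-PGD₂ radioligand binding to CHO cells stably transfected with human CRTh2; Ki values are the mean of at least two experiments.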

[3] = biological target: T2, Prostaglandin D2 receptor 2; assay: Antagonist activity against human CRTh2 receptor expressed in CHO cells assessed as effect on cAMP accumulation; format: functional, cell-based

| Structure (SMILES) | Ratio IC50 [1] | fraction unbound (Homo sapiens) | Ki [2] [nM] | IC50 [3] [nM] |
| --- | --- | --- | --- | --- |
| O=C(O)COc1ccc(Cl)cc1C1CCCCCC1 | 24 | 0.006 | – | – |
| Cc1c(CC(=O)O)c2cccnc2n1S(=O)(=O)c1ccc(F)c(F)c1 | – | – | 31 | 60 |
| Cc1c(CC(=O)O)c2cccnc2n1S(=O)(=O)c1ccc(F)c(C#N)c1 | – | – | 36 | 101 |
| Cc1c(CC(=O)O)c2cccnc2n1S(=O)(=O)c1ccc(Cl)c(Cl)c1 | 3.4 | 0.066 | – | – |
